PMC3089805 (Chemmedchem, 2010)
Converted amounts (≈) assume the structure as drawn.

Tested on: C. jejuni strain H840
Assay: MIC determination, liquid microdilution, C. jejuni
Format: cell-based
Conditions: Campylobacter jejuni, H840, 27 h, read-out: MIC C. jejuni

MIC: 6.9 µM (≈ 2 µg/mL)
Structure (SMILES): O=C(Nc1ncc([N+](=O)[O-])s1)c1ccc(Cl)s1 [Analogue 77, 5-Chloro-N-(5-nitrothiazol-2-yl)thiophene-2-carboxamide]
